Only a part is listed here, and it is no random draw. Active and inactive are the calls of the source. No stated cut-off is given here; in the data, active means inhibition above about 50% (passing the limit was not always enough); inconclusive means no clear call, values can overlap the other calls; inactive means below about 31%.

In general, inhibition refers to the relative decrease from the control value, in per cent.

This test is described as follows: blockers of Vif multimerization in cells – imaging, HEK293T, single point, primary screen (AID 602346). As to conditions: Vif self-association by quenched fluorescence, 24 h, at 7.49 µM, stronger effect = higher value.
Consider `CCC(=O)N(c1ccccc1)C1(COC)CCN(CCn2nnn(CC)c2=O)CC1`, for which the inhibition is inactive: 0.0285%.
As for `CCC(=O)N(c1ccccc1)C1(COC)CCN(CCc2cccs2)CC1`, the figure is inactive: -9.68%.

Source of the values: PubChem BioAssay AID602346 (Broad Institute, 2012).
